This data set is described as follows: Stability of bis azainositol heavy metal complexes under heat sterilization (121° C., 45 min, pH 7.4; HPLC and ICP-OES). Conditions: aqueous buffered solution pH 7.4, 5 mmol/L, 121° C. for 45 min in steam autoclave; absolute stability = HPLC peak area ratio x metal concentration ratio after/before.

For the substance “Trisodium bis{μ3-[(all-cis)-2-{[(carboxy-1κO)methyl]amino-1κN}-4-{[(carboxy-2κO)methyl]amino-2κN}-6-{[(carboxy-3κO)methyl]amino-3κN}cyclohexane-1,3,5-triolate-1κ^2O^1,O^3:2κ^2O^3,O^5:3κ^2O^1,O^5]}triytterbate(III) [Example 6]”, the Stability is listed as 99%.

Values taken from patent US20150132229A1, “BIS AZAINOSITOL HEAVY METAL COMPLEXES FOR X-RAY IMAGING” (BAYER PHARMA AKTIENGESELLSCHAFT, priority 2012, published 2015).
